Data on 4 compounds can be found in US20100035311A1, “METHOD AND COMPOSITION FOR ENZYME STORAGE” (priority 2006, published 2010).

The term kcat/Km denotes the second-order rate constant that governs catalysis at low substrate concentration. For orientation: kcat means the number of substrate molecules converted per active site and unit of time at saturation.

“And” between values parts separate entries of the source, which are not always exact repeats. Equal values may be shown once. Read-outs that look alike come from different tables or passages of the source.

The test deals with T1, Arabidopsis thaliana allene oxide synthase CYP74A1 (AOS), recombinant, C-terminal 4×His-tag, lacking the 32 N-terminal amino acid chloroplast targeting sequence (Arabidopsis thaliana, UniProt Q96242).
T1 sequence (Q96242 with tags, fused parts or gaps): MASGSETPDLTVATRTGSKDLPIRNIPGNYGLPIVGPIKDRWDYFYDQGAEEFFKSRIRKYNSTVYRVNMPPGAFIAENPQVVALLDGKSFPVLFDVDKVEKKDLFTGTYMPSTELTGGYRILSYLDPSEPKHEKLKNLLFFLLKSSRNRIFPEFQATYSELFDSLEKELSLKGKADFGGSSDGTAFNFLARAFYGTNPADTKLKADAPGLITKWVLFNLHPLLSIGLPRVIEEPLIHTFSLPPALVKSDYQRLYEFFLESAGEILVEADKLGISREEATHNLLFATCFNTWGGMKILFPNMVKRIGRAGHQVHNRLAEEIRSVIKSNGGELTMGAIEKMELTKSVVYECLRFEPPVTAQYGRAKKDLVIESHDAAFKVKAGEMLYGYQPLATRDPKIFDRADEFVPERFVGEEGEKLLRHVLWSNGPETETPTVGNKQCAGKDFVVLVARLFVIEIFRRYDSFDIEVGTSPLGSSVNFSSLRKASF
The conditions noted are these: for kcat: pH 6.5, 25° C.; for Km, fold increase versus 13-HPOTE / kcat as % of kcat with 13-HPOTE: reactivated; for fold increase in kcat/Km after reactivation: reactivated with Emulphogene micelles vs detergent-free.

The mark [1] stands for this setting: Reactivated with 50 μM Emulphogene micelle.

Take `CCCCC/C=C\C=C\[C@H](CCCCCCCC(=O)O)OO` [9α-HPOD]: the “Km, fold increase versus 13-HPOTE” value was 6 fold and the “kcat as % of kcat with 13-HPOTE” value was found to be 2%. For the same compound, under “Detergent-free”, the kcat/Km turned out to be 800000 M⁻¹ s⁻¹ and the kcat was 4.9 ± 0.4 s⁻¹. In addition, under setting [1], the “Substrate specificity (% 13-HPOTE), from kcat/Km” value is 0.3%; the kcat/Km came out at 200000 M⁻¹ s⁻¹; the kcat stood at 12 ± 1 s⁻¹.
As for `CC/C=C\C/C=C\C=C\[C@H](CCCCCCCC(=O)O)OO` [9α-HPOT, 9-S-hydroperoxy-10E,12Z,15Z-octadecatrienoic acid], the “Km, fold increase versus 13-HPOTE” value turned out to be 6 fold and the “kcat as % of kcat with 13-HPOTE” value was determined as 2%. Also, under “Detergent-free”, the “Substrate specificity (% 13-HPOTE), from kcat/Km” value came out at 25%; the kcat/Km stood at 300000 M⁻¹ s⁻¹; the turnover number (kcat) came to 3.2 ± 0.1 s⁻¹. In addition, under setting [1], the “Substrate specificity (% 13-HPOTE), from kcat/Km” value is given as 0.3%; the kcat/Km was 200000 M⁻¹ s⁻¹; the kcat came to 11 ± 1 s⁻¹.
Turning to `CCCCC[C@@H](/C=C/C=C\CCCCCCCC(=O)O)OO` [13α-HPOD, 13-S-hydroperoxyoctadeca-9Z, 11 E-dienoic acid], the “fold increase in kcat/Km after reactivation” value is recorded as 10 fold. Also, where the note is “Detergent-free”, the kcat/Km was 900000 M⁻¹ s⁻¹ and the kcat came out at 4.2 ± 0.2 s⁻¹. Further, under setting [1], the “Substrate specificity (% 13-HPOTE), from kcat/Km” value came to 14%; the kcat/Km was 8.1e+06 M⁻¹ s⁻¹; the kcat stood at 226 ± 9 s⁻¹. For the same compound, for the setting “reactivated vs detergent-free”, the “fold decrease in affinity (Km higher) after reactivation” value is recorded as approximately 6 fold and the “kcat, fold increase after reactivation” value was 54 fold.
As to `CC/C=C\C[C@@H](/C=C/C=C\CCCCCCCC(=O)O)OO` [13α-HPOT, 13-S-hydroperoxy-9Z,11E,15Z-octadecatrienoic acid], where the note is “Detergent-free”, the “Substrate specificity (% 13-HPOTE), from kcat/Km” value amounted to 100%; the kcat/Km worked out at 1.2e+06 M⁻¹ s⁻¹; the kcat came to 3.3 ± 0.1 s⁻¹. Besides, under setting [1], the “Substrate specificity (% 13-HPOTE), from kcat/Km” value is on record as 100%; the kcat/Km is 5.87e+07 M⁻¹ s⁻¹; the kcat is 528 ± 15 s⁻¹. The “kcat, fold increase after reactivation” value (reactivated vs detergent-free) worked out at 160 fold. Also, the “fold increase in kcat/Km after reactivation” value (listed as 13-HPOTE) was 50 fold and 48 fold. Further, the kcat/Km result (with detergent micelles) is given as “up to 5.9×10^7 M^−1.s^−1”.
